# In US20090318509A1, “Oxime Derivatives as Inhibitors of Macrophage Migration Inhibitory Factor” (priority 2006, published 2009):
# By UniProt entry, the sequences of proteins in these tests, tags left out. Residues count along the entry.
# UniProt P14174, 2-115 limits assumed: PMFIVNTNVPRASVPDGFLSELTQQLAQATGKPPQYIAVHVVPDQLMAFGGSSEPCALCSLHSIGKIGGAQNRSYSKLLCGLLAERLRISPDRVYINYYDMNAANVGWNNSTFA
# Molecular target: MIF (Homo sapiens, UniProt P14174)
# Assay: MIF dopachrome tautomerase activity inhibition
# Type: biochemical
# Conditions: read-out: IC50 of MIF dopachrome tautomerase activity
structure (smiles),measurement,value
O=C(O/N=C/c1ccc(O)c(F)c1)C1CCCCC1,IC50,900 nM
